Reference: ChEMBL document CHEMBL2157975 (Bioorg Med Chem Lett, 2012)

Target: Type-1 angiotensin II receptor (Homo sapiens, UniProt P30556)
Test: Inhibition of AT1 receptor

## Cc1ccnc(SCc2cc(=O)c(OC(=O)c3ccc(Cl)c([N+](=O)[O-])c3)co2)n1
  IC50: > 79 µM
